For one compound, Kd results are on record in BindingDB's records for doi:10.1016/s1097-2765(05)00089-4 (Mrc, 2000).

Sequences of proteins named here, by UniProt entry; tags and fusion partners are left off. A change or cut given only in a name is not applied to a line headed by its entry.
UniProt P48736: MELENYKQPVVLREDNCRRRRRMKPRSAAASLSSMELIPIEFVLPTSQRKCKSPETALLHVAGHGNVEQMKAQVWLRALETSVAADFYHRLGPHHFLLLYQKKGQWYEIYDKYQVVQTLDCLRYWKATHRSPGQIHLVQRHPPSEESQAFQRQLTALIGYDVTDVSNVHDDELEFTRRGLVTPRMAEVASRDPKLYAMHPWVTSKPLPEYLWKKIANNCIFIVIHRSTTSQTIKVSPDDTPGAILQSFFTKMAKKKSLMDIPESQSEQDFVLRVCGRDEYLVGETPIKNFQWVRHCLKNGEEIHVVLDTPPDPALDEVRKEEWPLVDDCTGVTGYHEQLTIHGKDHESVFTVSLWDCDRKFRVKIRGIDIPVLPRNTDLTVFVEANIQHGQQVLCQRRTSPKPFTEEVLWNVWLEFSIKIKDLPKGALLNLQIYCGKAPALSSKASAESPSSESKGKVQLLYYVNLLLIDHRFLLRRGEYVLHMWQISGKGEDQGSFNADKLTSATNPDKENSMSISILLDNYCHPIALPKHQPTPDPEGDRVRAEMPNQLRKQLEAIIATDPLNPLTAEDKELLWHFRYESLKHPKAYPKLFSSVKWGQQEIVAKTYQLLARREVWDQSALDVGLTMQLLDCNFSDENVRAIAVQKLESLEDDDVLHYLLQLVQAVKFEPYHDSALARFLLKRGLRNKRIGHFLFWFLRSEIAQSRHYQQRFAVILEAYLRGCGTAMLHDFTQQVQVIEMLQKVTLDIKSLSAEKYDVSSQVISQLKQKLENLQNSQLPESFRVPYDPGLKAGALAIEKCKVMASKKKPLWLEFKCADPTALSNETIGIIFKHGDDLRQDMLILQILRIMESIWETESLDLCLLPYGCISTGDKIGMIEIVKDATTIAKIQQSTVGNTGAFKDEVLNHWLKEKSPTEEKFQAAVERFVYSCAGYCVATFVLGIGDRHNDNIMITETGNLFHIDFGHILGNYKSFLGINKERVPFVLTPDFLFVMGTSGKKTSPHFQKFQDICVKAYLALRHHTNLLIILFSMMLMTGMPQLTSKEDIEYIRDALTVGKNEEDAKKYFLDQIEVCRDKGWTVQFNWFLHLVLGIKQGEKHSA

The target of this test is Phosphatidylinositol 4,5-bisphosphate 3-kinase catalytic subunit gamma isoform (Homo sapiens, UniProt P48736). Nature of the test: Fluorescence Assays for Determination of Binding Affinity. Particulars: pH 7.2; 20 °C.

`O=c1cc(N2CCOCC2)oc2c(-c3ccccc3)cccc12` came in with an equilibrium dissociation constant (Kd) of 0.21 µM.
